Data on 24 compounds can be found in patent US20090312349A1, “ANTI-INFLAMMATORY MEDICAMENTS” (priority 2004, published 2009).

The chains behind the UniProt entries cited, without tags or fusion partners. Residues count along the entry.
UniProt Q16539, 1-360 isoform Q16539-2: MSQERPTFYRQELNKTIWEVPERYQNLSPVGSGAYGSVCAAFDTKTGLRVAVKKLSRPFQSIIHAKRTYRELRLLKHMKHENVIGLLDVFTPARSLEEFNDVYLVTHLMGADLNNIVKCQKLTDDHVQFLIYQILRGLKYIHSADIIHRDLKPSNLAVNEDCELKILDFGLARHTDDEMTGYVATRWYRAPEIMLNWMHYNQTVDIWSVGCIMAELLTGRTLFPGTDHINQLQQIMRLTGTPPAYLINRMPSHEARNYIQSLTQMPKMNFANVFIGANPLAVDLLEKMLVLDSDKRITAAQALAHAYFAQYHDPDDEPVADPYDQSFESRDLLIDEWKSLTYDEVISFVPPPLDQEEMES

Molecules are shown by their SMILES.

One may read the IC50 as the concentration that inhibits the measured activity by half. High values mean weaker potency in that assay, low ones greater potency in that assay.

In this assay the target is phosphorylated p-38-alpha kinase (Homo sapiens, UniProt Q16539). The assay can be described thus: P-38 alpha kinase assay P1. Type of assay: biochemical. The note with it: Method P1; 2 h pre-incubation before ATP.
Take `CC(C)(C)c1cc(NC(=O)Nc2ccc(F)cc2F)n(-c2cccc(CC(N)=O)c2)n1` [Example 496, 1-(1-(3-(2-amino-2-oxoethyl)phenyl)-3-tert-butyl-1H-pyrazol-5-yl)-3-(2,4-difluorophenyl)urea]: 0.031 µM corresponded to half-maximal inhibition (IC50). As to `O=C(Cc1cccc(-n2nc(-c3ccccc3)cc2NC(=O)Nc2cccc(Cl)c2Cl)c1)NCCO` [Example 454, 1-(2,3-dichlorophenyl)-3-(1-(3-(2-(2-hydroxyethylamino)-2-oxoethyl)phenyl)-3-phenyl-1H-pyrazol-5-yl)urea], the IC50 came to 0.014 µM. In the case of `O=C(O)Cc1ccc(-n2nc(-c3ccccc3)cc2NC(=O)Nc2cccc(Cl)c2Cl)cc1` [Example 438, 2-(4-(5-(3-(2,3-dichlorophenyl)ureido)-3-phenyl-1H-pyrazol-1-yl)phenyl)acetic acid] it was 0.01 µM; in that of `C=C1NS(=O)(=O)N(Cc2cccc(-n3nc(C(C)(C)C)cc3NC(=O)Nc3cccc(Cl)c3Cl)c2)C1=O` [Example 511, 1-{5-t-butyl-2-[3-(4-methylene-1,1,3-trioxo-[1,2,5]thiadiazolidin-2-ylmethyl)-phenyl]-2H-pyrazol-3-yl}-3-(2,3-dichlorophenyl)-urea], 0.3 µM. On to `O=C(O)Cc1ccc(-n2nc(-c3cccs3)cc2NC(=O)Nc2cccc(Cl)c2Cl)cc1` [Example 442, 2-(4-(5-(3-(2,3-dichlorophenyl)ureido)-3-(thiophen-2-yl)-1H-pyrazol-1-yl)phenyl)acetic acid], for which the IC50 amounted to 0.005 µM. The compound `CC(Cc1cccc(-n2nc(-c3cccs3)cc2NC(=O)Nc2cccc(Cl)c2Cl)c1)C(=O)O` (stereo not drawn) [Example 490, 3-(3-(5-(3-(2,3-dichlorophenyl)ureido)-3-(thiophen-2-yl)-1H-pyrazol-1-yl)phenyl)-2-methylpropanoic acid] showed an IC50 of 0.031 µM. As for `NC(=O)Cc1cccc(-n2nc(-c3ccc(F)cc3)cc2NC(=O)Nc2cccc(Cl)c2Cl)c1` [Example 448, 1-(1-(3-(2-amino-2-oxoethyl)phenyl)-3-(4-fluorophenyl)-1H-pyrazol-5-yl)-3-(2,3-dichlorophenyl)urea], the IC50 was determined as 0.027 µM. The IC50 values of the last two compounds are within 1.5-fold of each other.

The compound `NC(=O)Cc1cccc(-n2nc(-c3cccs3)cc2NC(=O)Nc2cccc(Oc3cccnc3)c2)c1` [Example 502, 1-(1-(3-(2-amino-2-oxoethyl)phenyl)-3-(thiophen-2-yl)-1H-pyrazol-5-yl)-3-(3-(pyridin-3-yloxy)phenyl)urea] returned an IC50 of 0.034 µM.

In turn, `COC(=O)Cc1ccc(-n2nc(-c3ccsc3)cc2NC(=O)Nc2cccc(Cl)c2Cl)cc1` [Example 445, methyl 2-(4-(5-(3-(2,3-dichlorophenyl)ureido)-3-(thiophen-3-yl)-1H-pyrazol-1-yl)phenyl)acetate] returned an IC50 of 0.01 µM. The compound `O=C(O)Cc1cccc(-n2nc(-c3ccccc3)cc2NC(=O)Nc2cccc(Cl)c2Cl)c1` [Example 430, 2-(3-(5-(3-(2,3-dichlorophenyl)ureido)-3-phenyl-1H-pyrazol-1-yl)phenyl)acetic acid] registered an IC50 of 0.006 µM. Then `O=C(Cc1ccc(-n2nc(-c3ccccc3)cc2NC(=O)Nc2cccc(Cl)c2Cl)cc1)NCCO` [Example 470, 1-(2,3-dichlorophenyl)-3-(1-(4-(2-(2-hydroxyethylamino)-2-oxoethyl)phenyl)-3-phenyl-1H-pyrazol-5-yl)urea], with 0.025 µM; and `O=C(Nc1ccc(F)c(F)c1F)Nc1cc(-c2cccs2)nn1-c1cccc(CO)c1` [Example 493, 1-(1-(3-(hydroxymethyl)phenyl)-3-(thiophen-2-yl)-1H-pyrazol-5-yl)-3-(2,3,4-trifluorophenyl)urea], with 0.042 µM. `O=C(Nc1cccc(Cl)c1Cl)Nc1cc(-c2cccs2)nn1-c1cccc(CO)c1` [Example 486, 1-(2,3-dichlorophenyl)-3-(1-(3-(hydroxymethyl)phenyl)-3-(thiophen-2-yl)-1H-pyrazol-5-yl)urea] registered an IC50 of 0.005 µM.

`O=C(Nc1cccc(Cl)c1Cl)Nc1cc(-c2ccccc2F)nn1-c1cccc(CO)c1` [Example 485, 1-(2,3-dichlorophenyl)-3-(3-(2-fluorophenyl)-1-(3-(hydroxymethyl)phenyl)-1H-pyrazol-5-yl)urea] had a 50% inhibitory concentration (IC50) of 0.012 µM. In the case of `CC(C)(C)c1cc(NC(=O)Nc2cccc(Cl)c2Cl)n(-c2cccc(CN3C(=O)NC(=O)C3=O)c2)n1` [Example 482, 1-(3-tert-butyl-1-(3-((2,4,5-trioxoimidazolidin-1-yl)methyl)phenyl)-1H-pyrazol-5-yl)-3-(2,3-dichlorophenyl)urea] it was 0.01 µM. The compound `CC(C)(C)c1cc(NC(=O)Nc2ccc(F)cc2F)n(-c2ccc(CC(=O)O)cc2)n1` [Example 497, 2-(4-(3-tert-butyl-5-(3-(2,4-difluorophenyl)ureido)-1H-pyrazol-1-yl)phenyl)acetic acid] yielded an IC50 of 0.018 µM. Turning to `O=C(O)Cc1cccc(-n2nc(-c3cccs3)cc2NC(=O)Nc2cccc(Cl)c2Cl)c1` [Example 435, 2-(3-(5-(3-(2,3-dichlorophenyl)ureido)-3-(thiophen-2-yl)-1H-pyrazol-1-yl)phenyl)acetic acid], the IC50 was 0.006 µM.

Compound `Cc1ccc(NC(=O)Nc2cc(C(C)(C)C)nn2-c2cccc(CC(N)=O)c2)cc1Nc1nccc(-c2cccnc2)n1` [Example 516, 1-(1-(3-(2-amino-2-oxoethyl)phenyl)-3-tert-butyl-1H-pyrazol-5-yl)-3-(4-methyl-3-(4-(pyridin-3-yl)pyrimidin-2-ylamino)phenyl)urea] displayed an IC50 of 0.015 µM. `O=C(O)Cc1cccc(-n2nc(-c3ccc(F)cc3)cc2NC(=O)Nc2cccc(Cl)c2Cl)c1` [Example 431, 2-(3-(5-(3-(2,3-dichlorophenyl)ureido)-3-(4-fluorophenyl)-1H-pyrazol-1-yl)phenyl)acetic acid] had an IC50 of 0.028 µM. Regarding `Cc1ccc(NC(=O)Nc2cc(C(C)(C)C)nn2-c2cccc(CC(=O)NCC(O)CO)c2)cc1Nc1nccc(-c2cccnc2)n1` (stereo not drawn) [Example 517, 1-(3-tert-butyl-1-(3-(2-(2,3-dihydroxypropylamino)-2-oxoethyl)phenyl)-1H-pyrazol-5-yl)-3-(4-methyl-3-(4-(pyridin-3-yl)pyrimidin-2-ylamino)phenyl)urea], the IC50 came to 0.025 µM. This IC50 and that of the compound before are within 1.5-fold of each other. Then `CC(Cc1cccc(-n2nc(-c3ccccc3F)cc2NC(=O)Nc2cccc(Cl)c2Cl)c1)C(N)=O` (stereo not drawn) [Example 489, 1-(1-(3-(3-amino-2-methyl-3-oxopropyl)phenyl)-3-(2-fluorophenyl)-1H-pyrazol-5-yl)-3-(2,3-dichlorophenyl)urea], with 0.066 µM; and `CCOC(=O)Cc1ccc(-n2nc(C3CCCC3)cc2NC(=O)Nc2cccc(Cl)c2Cl)cc1` [Example 437, ethyl 2-(4-(3-cyclopentyl-5-(3-(2,3-dichlorophenyl)ureido)-1H-pyrazol-1-yl)phenyl)acetate], with 0.029 µM; and `CN1CCN(C(=O)Cc2ccc(-n3nc(-c4ccccc4)cc3NC(=O)Nc3cccc(Cl)c3Cl)cc2)CC1` [Example 475, 1-(2,3-dichlorophenyl)-3-(1-(4-(2-(4-methylpiperazin-1-yl)-2-oxoethyl)phenyl)-3-phenyl-1H-pyrazol-5-yl)urea], with 0.037 µM. Then `NC(=O)Cc1cccc(-n2nc(C(F)(F)F)cc2NC(=O)Nc2cccc(Oc3cccnc3)c2)c1` [Example 503, 1-(1-(3-(2-amino-2-oxoethyl)phenyl)-3-(trifluoromethyl)-1H-pyrazol-5-yl)-3-(3-(pyridin-3-yloxy)phenyl)urea], with 1.5 µM.
